Assays:
[1] = system: receptor negative PC-3 tumors; conditions: mouse, in vivo
[2] = system: T877A-AR positive C4-2 tumors; conditions: mouse, in vivo
[3] = mouse, in vivo

PC-3 Tumor [1]: 20.78 ± 8.28 % ID/g
C4-2 Tumor [2]: 36.14 ± 8.49 % ID/g
Bone [3]: 38.89 ± 7.72 % ID/g
Brain [3]: 56.51 ± 15.03 % ID/g
Heart [3]: 171.45 ± 61.48 % ID/g
Intestine [3]: 14.57 ± 1.68 % ID/g
Kidney [3]: 16.05 ± 1.82 % ID/g
Liver [3]: 11.13 ± 3.34 % ID/g
Lung [3]: 24.14 ± 5.01 % ID/g
Muscle [3]: 29.08 ± 10.07 % ID/g
Prostate [3]: 227.57 ± 126.41 % ID/g
Spleen [3]: 17.66 ± 6.52 % ID/g
Testis [3]: 65.97 ± 12.93 % ID/g
Urine [3]: 1071.94 ± 275.25 % ID/g
route of metabolism/excretion [3]: excreted predominantly by the kidney
Substance: ^18F-fluorodeoxyglucose [^18F-FDG]

From patent US20150190534A1, “COMPOUNDS FOR USE AS POSITRON EMISSION IMAGING AGENTS” (UNIVERSITY OF BERN, priority 2014, published 2015)
